Reference: PubChem BioAssay AID588590 (National Center for Advancing Translational Sciences (NCATS), 2011)
This is a selection; strong and weak results do not stand in their true shares. Results filed as inconclusive are left out. Calls of active or inactive are those of the source. The call rests on the fitted dose curve; in most records, active means well fitted inhibition curve with a large enough effect; inconclusive means small, poorly fitted or top-dose-only effect, or another doubt; inactive means no such curve, though single readings can be large or run the other way.

Amino acid sequences for entries named in this document (tags omitted).
UniProt Q9UNA4, whole entry: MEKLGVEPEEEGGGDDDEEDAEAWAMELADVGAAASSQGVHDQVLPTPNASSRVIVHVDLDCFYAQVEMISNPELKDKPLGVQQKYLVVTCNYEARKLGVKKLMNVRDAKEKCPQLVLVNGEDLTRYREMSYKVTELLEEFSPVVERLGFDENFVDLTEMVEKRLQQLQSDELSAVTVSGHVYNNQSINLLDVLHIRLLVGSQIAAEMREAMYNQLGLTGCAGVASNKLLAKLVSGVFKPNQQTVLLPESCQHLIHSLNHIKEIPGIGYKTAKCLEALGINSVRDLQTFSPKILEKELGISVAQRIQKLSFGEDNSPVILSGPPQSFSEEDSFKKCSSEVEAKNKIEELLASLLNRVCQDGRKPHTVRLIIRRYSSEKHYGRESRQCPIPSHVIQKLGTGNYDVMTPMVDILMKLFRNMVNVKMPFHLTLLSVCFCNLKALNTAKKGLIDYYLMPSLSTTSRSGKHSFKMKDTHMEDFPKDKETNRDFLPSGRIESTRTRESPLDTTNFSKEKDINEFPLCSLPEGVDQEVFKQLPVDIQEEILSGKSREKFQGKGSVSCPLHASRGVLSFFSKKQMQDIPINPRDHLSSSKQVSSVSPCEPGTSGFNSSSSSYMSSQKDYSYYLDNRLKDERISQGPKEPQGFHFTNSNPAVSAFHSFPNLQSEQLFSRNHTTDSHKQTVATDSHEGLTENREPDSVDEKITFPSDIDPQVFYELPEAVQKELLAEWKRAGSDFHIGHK

Each compound was assayed against DNA polymerase iota (Homo sapiens) (UniProt Q9UNA4) (assay: qHTS for Inhibitors of Polymerase Iota). Settings: Pol iota fluorescent replication assay, 10 min; at 115 µM (top of the series).

SMILES	activity, negative = inhibition
COc1ccccc1OP(C)(=O)Nc1c(C)cccc1C (stereo unspecified)	inactive: 13.8%
